The results in this text go back to BindingDB's records for 15357993.

Chains of the proteins cited; added tags and fusions are not shown. Residues count along the entry.
UniProt Q50565, 1-176: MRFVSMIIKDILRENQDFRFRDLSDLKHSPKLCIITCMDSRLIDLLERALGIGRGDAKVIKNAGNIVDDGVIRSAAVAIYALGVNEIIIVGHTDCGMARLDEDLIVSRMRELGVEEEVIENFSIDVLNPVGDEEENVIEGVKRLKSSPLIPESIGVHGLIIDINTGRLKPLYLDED

In this assay the target is Carbonic anhydrase (Methanothermobacter thermautotrophicus (strain ATCC 29096 / DSM 1053 / JCM 10044 / NBRC 100330 / Delta H), UniProt Q50565). The assay can be described thus: ASSAY_NAME: ChEMBL_302990 (CHEMBL830229) DESCRIPTION: Inhibitory constant against methanoarchaeon Methanobacterium thermoautotrophicum (Cab).

This is a selection: effects in other tests are not listed, and their absence says nothing.

Broadly, the Ki is the dissociation constant of the complex between target and ligand, obtained from inhibition or displacement. Compound `C=NO` showed an inhibition constant (Ki) of 11.2 mM. This counts as millimolar.
